Test [1] has as its target T1, 5'-methylthioadenosine/S-adenosylhomocysteine nucleosidase (Vibrio cholerae serotype O1 (strain ATCC 39315 / El Tor Inaba N16961), UniProt Q9KPI8).
T1 sequence (Q9KPI8 whole entry): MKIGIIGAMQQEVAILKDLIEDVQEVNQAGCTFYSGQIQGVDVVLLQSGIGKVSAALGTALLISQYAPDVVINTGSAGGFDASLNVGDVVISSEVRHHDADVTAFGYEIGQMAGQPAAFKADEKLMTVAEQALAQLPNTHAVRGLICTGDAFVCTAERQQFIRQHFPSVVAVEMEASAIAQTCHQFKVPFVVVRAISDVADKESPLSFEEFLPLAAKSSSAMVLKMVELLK

The target in test [2] is T1, 5'-methylthioadenosine/S-adenosylhomocysteine nucleosidase. The source holds these as a separate data set.
For test [3] the target is unchanged. The source holds these as a separate data set.
Test [4] has the same target. Nature of the test: cell-based.

What is called IC50 is the concentration needed to halve the response being measured. Higher therefore signals weaker potency. In general, Ki refers to the dissociation constant of the complex between target and ligand, obtained from inhibition or displacement. The low end stands for tighter binding, the high end for weaker binding. In the case of `CSC[C@H]1CN(Cc2c[nH]c3c(N)ncnc23)C[C@@H]1O`, the IC50 stood at 10.5 nM in test [1], 10.5 nM in test [2] and 27 nM in test [4]. Besides, the Ki in test [3] came out at 0.073 nM.

The values are drawn from ChEMBL document CHEMBL1240343, “Transition state analogs of 5'-methylthioadenosine nucleosidase disrupt quorum sensing” (Nat Chem Biol, 2009).
